Consider one compound from patent USRE39114E1, “Expression of sucrose phosphorylase in plants” (Monsanto Technology LLC, priority 1995, dated 2006).

In the assay the target is Streptococcus mutans sucrose phosphorylase (GtfA, S. mutans SP), wild type, gene gtfA SEQ ID NO:5 (Streptococcus mutans serotype c, UniProt P10249). As to conditions: read-out: Km(Pi), 25° C., pH 7.0.

For orientation: Km means the concentration of substrate that gives half-maximal velocity. Take `O=P(O)(O)O` [Pi, inorganic phosphate]: the Km came out at 15.3 mM.
